Target: Beta-2 adrenergic receptor (Bos taurus, UniProt Q28044)

Amino acid sequences for entries named in this document (tags omitted).
UniProt Q28044, whole entry: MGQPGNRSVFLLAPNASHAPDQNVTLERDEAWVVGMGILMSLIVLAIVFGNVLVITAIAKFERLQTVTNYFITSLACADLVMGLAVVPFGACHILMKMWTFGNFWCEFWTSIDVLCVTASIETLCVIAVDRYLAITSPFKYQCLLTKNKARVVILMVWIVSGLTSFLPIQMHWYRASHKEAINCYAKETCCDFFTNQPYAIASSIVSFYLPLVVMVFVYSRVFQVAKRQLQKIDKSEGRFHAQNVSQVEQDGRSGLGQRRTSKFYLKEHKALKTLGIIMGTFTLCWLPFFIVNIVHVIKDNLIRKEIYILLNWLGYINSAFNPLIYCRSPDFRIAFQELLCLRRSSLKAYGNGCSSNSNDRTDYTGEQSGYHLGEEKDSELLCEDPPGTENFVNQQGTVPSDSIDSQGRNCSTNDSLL

Compound: CC(C)(C)NCC(O)c1cc(Cl)c(N)c(Cl)c1 (stereo unspecified) [Planipart]
- Kd: 18 nM

From BindingDB's records for doi:10.1021/jm00147a037 (1985)
